# Tested on: C3H10T1/2 cells
# Test: Micromass culture of MAST4 knockout cells with BMP2, alcian blue staining
# Format: cell-based, mouse
# Conditions: MAST4 knockout cells, 100, 500 or 1000 ng/ml BMP2, from day 3, FIG. 6
# Description: In detail, MAST4 knockout cells were prepared as in Example 2-1, and micromass culture was performed with reference to a known method (Differentiation and Mineralization of Murine Mesenchymal C3H10T1/2 Cells in Micromass Culture, 2010, Rani Roy). First, 10 μl of a medium containing total 10^5 fibroblast cells were put in the center of each well of a 12-well plate, and incubated for 2 hours. 1 ml of DMEM containing 10% FBS was added to each well. Thereafter, 100 ng/ml, 500 ng/ml, or 1000 ng/ml of BMP2 was added to each culture depending on the purpose of cartilage induction, respectively. Thereafter, the medium was replaced with a fresh medium every three days.
# In detail, plates of cells corresponding to each date were washed twice with PBS and fixed for 15 minutes by adding 1 ml of 4% paraformaldehyde. Then, 1 ml of 1% alcian blue 8-GX (Sigma-Aldrich, A5268) dissolved in 0.1 N HCl (pH 1.0) was added and stained overnight. After washing twice with 500 μl of 0.1 N HCl, images were obtained.
molecule,measurement,value
"BMP2: chondrogenic inducer added to micromass culture (protein, UniProt P12643 283-396, looked up) Bone morphogenetic protein 2: QAKHKQRKRLKSSCKRHPLYVDFSDVGWNDWIVAPPGYHAFYCHGECPFPLADHLNSTNHAIVQTLVNSVNSKIPKACCVPTELSAISMLYLDENEKVVLKNYQDMVVEGCGCR",degree of chondrogenesis and extracellular matrix secretion (alcian blue staining),increased with increasing BMP2 concentration

# — patent publication US11180573B2, “Extracellular matrix-producing composition using MAST4 gene and preparation method therefor” (priority 2017, dated 2021)
